Experimental data: article PMC7939445, “Exploitation of dihydroorotate dehydrogenase (DHODH) and p53 activation as therapeutic targets: A case study in polypharmacology” (The Journal of Biological Chemistry, 2021)

By UniProt entry, the sequences of proteins in these tests, tags left out.
UniProt Q02127, whole entry: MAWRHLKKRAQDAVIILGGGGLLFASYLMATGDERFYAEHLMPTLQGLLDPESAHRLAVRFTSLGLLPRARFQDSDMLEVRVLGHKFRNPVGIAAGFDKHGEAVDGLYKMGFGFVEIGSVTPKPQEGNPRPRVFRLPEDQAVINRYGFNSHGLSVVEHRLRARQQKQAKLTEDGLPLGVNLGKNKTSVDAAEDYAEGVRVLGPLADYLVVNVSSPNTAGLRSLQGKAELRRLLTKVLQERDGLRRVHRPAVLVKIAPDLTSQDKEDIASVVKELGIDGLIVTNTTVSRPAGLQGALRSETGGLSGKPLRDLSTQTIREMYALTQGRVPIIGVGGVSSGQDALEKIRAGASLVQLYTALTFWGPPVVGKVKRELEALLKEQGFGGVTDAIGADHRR

Assays:
U2OS or ARN8 cells = test: Uridine uptake assay ([3H]uridine, scintillation counting); details: 5 μM
[1] = tested on: HCT116 p53 WT and p53 KO cells; test: IncuCyte cell confluence measurements; assay type: cell-based, human; details: HCT116 p53 WT or KO, 5 μM, confluence over 72 h
[2] = tested on: p53 transcriptional activity in ARN8 cells; test: p53 transcriptional activation (CPRG) cell reporter assay; assay type: cell-based, human; details: 18 h, 100 μM uridine, 1 mM DHO or 1 mM OA
ARN8 cells = test: SRB assay in ARN8 cells with nucleotide supplementation; details: 72 h, 100 μM uridine, 1 mM DHO or 1 mM OA
[3] = tested on: p53, hdm2 and p21 in ARN8 cells; test: Western blotting of p53 and p53 targets in ARN8 cells; assay type: cell-based, human; details: 5 μM; for Treatment time at which p53 protein levels increased: blotted at 2, 4, 6 or 8 h; for Effect of OA and uridine on p53 protein and downstream signaling (hdm2, p21): 24 h, 100 μM uridine or 1 mM OA
recombinant human DHODH = recombinant human DHODH (Homo sapiens, UniProt Q02127); test: DHODH enzymatic assay (kinetic, DCIP reduction); details: for IC50: read-out: DHODH inhibition (enzyme assay), IC50, 6 nM recombinant human DHODH, average of three independent repeats
[4] = tested on: SKNSH p53 WT and ddp53 cells; test: SRB assay in SKNSH cells; assay type: cell-based, human; details: SKNSH WT p53 versus ddp53, dose titration, 72 h

Row | Compound | Inhibition of uridine uptake after 15 min (U2OS or ARN8 cells) | Effect on cell growth in p53 KO versus p53 WT cells [1] | Effect of supplementation on induction of p53 transcriptional activity [2] | Effect of supplementation on tumor cell growth inhibition (SRB) (ARN8 cells) | Treatment time at which p53 protein levels increased [3] | Effect of OA and uridine on p53 protein and downstream signaling (hdm2, p21) [3] | Inhibition of DHODH enzyme activity (in words) (recombinant human DHODH; biochemical assay) | IC50 (recombinant human DHODH) | IC50 (recombinant human DHODH; listed as tenovin 39OH) | Effect on cell growth when ddp53 is expressed [4]
1 | CN(C)CCCCNC(=O)c1ccc(NC(=S)NC(=O)c2ccc(C(C)(C)C)cc2)cc1 | able to inhibit uridine uptake into cells | effects on cell growth ablated in the p53 KO cells | unaffected | unaffected by supplementation | 2 h | largely unaffected | incapable of inhibiting DHODH | > 20 µM |  | 
2 | CC(C)(C)c1ccc(C(=O)NC(=O)Nc2ccc(C(=O)NCCCCO)cc2)cc1 | unable to inhibit DHODH or uridine uptake |  | unable to activate p53 |  |  | unable to bring up levels of p53 or its downstream targets |  | > 20 µM |  | 
3 | CC(C)(C)c1ccc(C(=O)NC(=S)Nc2ccc(C(=O)NCCCCO)cc2)cc1 |  | effects on cell growth ablated in the p53 KO cells | unaffected | unaffected by supplementation | 2 h | largely unaffected |  | 5.8 µM | 5.8 µM | 
4 | CN(C)CCCCNC(=O)c1ccc(NC(=O)NC(=O)c2ccc(C(C)(C)C)cc2)cc1 | able to inhibit uridine uptake into cells |  | unable to activate p53 |  |  | unable to bring up levels of p53 or its downstream targets |  | > 20 µM |  | not markedly changed

Like-named read-outs stand apart in the source and are kept apart here.
